# Apparent affinities of Ab-14 variants for a coronavirus HR2 peptide

The measurements come from Engelhart et al. 2022 (doi:10.1038/s41597-022-01779-4) through the FLAb antibody collection.

Antigen: PDVDLGDISGINAS, a 14-residue peptide of the SARS-CoV-2 spike HR2 region.

Ab-14 is the parent antibody, in scFv form: VH, then the linker GGGGSGGGGSGGGGS, then VL. The heavy chain is unchanged in all variants.
VH: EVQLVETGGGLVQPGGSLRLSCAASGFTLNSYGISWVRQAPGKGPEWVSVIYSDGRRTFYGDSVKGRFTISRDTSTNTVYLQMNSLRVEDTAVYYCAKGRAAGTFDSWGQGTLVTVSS
VL: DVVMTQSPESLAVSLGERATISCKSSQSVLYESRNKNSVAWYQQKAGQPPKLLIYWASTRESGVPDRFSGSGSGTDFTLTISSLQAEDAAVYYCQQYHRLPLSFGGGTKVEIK

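Variants in AAYL50 differ from the parent at up to three CDR positions; double and triple changes were sampled at random. Affinity was read by AlphaSeq, a pooled yeast mating assay with surface-displayed partners. Binding brings cells together so that they mate, and sequencing counts the barcode pairs among the diploids. Scores were corrected for input abundance and mapped to Kd with protein pairs of known affinity run in the same pool. Each pool was mated in three replicate cultures.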

Substitutions are numbered in sequence along the VL above, starting at 1 (not Kabat). This list gathers variants with a substitution at N37 (VL, numbered from residue 1). Values are log10 of the apparent Kd in nM; lower means stronger binding. Replicates are averaged; those with no signal do not enter the mean. Where no diploid with the target was found in any replicate, the entry reads "nd": below detection, most likely a poor binder, though not proof of it. The list is sorted by this average, lowest first, undetected variants last. Nonspecific signal, from three strains lacking the peptide, appeared in 18% of pairings of library AAYL50, centred on 4.19 (5% of these signals below 2.99); values are not corrected for it. For reference, the parent read 0.65 as the reference entry and 1.68 as a member of this library.

With N37Y/S62P the result was 0.68 (3 of 3 replicates).
With S25T/N37Q/V39I the result was 0.77 (3 of 3 replicates).
With S25F/N37Y/S62K the result was 1.47 (3 of 3 replicates).
With S26N/N37Y/Q96A the result was 1.56 (3 of 3 replicates).
With R34W/K36A/N37R the result was 1.60 (3 of 3 replicates).
With Q27I/N37P the result was 1.67 (3 of 3 replicates).
With K24E/N37K/Y97G the result was 1.82 (1 of 3 replicates).
With N37K the result was 1.82 (3 of 3 replicates).
With Q27F/N37A/E61P the result was 1.88 (3 of 3 replicates).
With E32N/N37A/L102C the result was 1.88 (3 of 3 replicates).
With Q27T/L30S/N37V the result was 1.95 (3 of 3 replicates).
With S28H/N37H/S103N the result was 1.96 (3 of 3 replicates).
With K24S/L30Y/N37G the result was 1.96 (3 of 3 replicates).
With N37E/S62T/H98G the result was 1.98 (3 of 3 replicates).
With N37S/P101A the result was 2.08 (3 of 3 replicates).
With R34Y/N37C/Q95A the result was 2.12 (3 of 3 replicates).
With S25G/N37R/R99Y the result was 2.15 (2 of 3 replicates).
With N37Q/S58V/L102S the result was 2.22 (3 of 3 replicates).
With N37K/T59F/R99S the result was 2.37 (3 of 3 replicates).
With S28Y/N37Q/T59K the result was 2.53 (3 of 3 replicates).
With S33W/N37R/L100T the result was 2.53 (3 of 3 replicates).
With N37I/Y97W/L100A the result was 2.64 (3 of 3 replicates).
With N37M/Y97S the result was 2.95 (1 of 3 replicates).
With R34V/N37G/L102G the result was 3.04 (3 of 3 replicates).
With N37M/V39Y/A57T the result was 3.15 (1 of 3 replicates).
With K24G/N37P the result was 3.29 (3 of 3 replicates).
With R34P/N37W/Y97K the result was 3.73 (2 of 3 replicates).
With K24C/N37M the result was 3.82 (2 of 3 replicates).
With Q27Y/N37L/T59G the result was 3.95 (2 of 3 replicates).
With N37T/W56I/T59E the result was 4.10 (1 of 3 replicates).
With L30K/N37I/L102Q the result was 4.19 (1 of 3 replicates).
With K24E/E32W/N37M the result was 4.27 (3 of 3 replicates).
With S33H/N37H/A57N the result was 4.35 (2 of 3 replicates).
With N37V/A57Q/L102E the result was 4.68 (1 of 3 replicates).
With N37C/S38A the result was 4.85 (2 of 3 replicates).
With K24W/Q27L/N37K the result was nd (0 of 3 replicates).
With N37C/S58Y/P101F the result was nd (0 of 3 replicates).
With Q27Y/N37F the result was nd (0 of 3 replicates).
With S33N/N37C/Q95L the result was nd (0 of 3 replicates).
With N37D/L100A the result was nd (0 of 3 replicates).
With E32H/N37P/A40N the result was nd (0 of 3 replicates).
With L30Y/S33R/N37K the result was nd (0 of 3 replicates).
With N37P/S58N/Y97S the result was nd (0 of 3 replicates).
With N37V/S38N/Q96I the result was nd (0 of 3 replicates).
With N37G/A40R/Y97V the result was nd (0 of 3 replicates).
With L30T/N37Q/S38V the result was nd (0 of 3 replicates).
With R34C/N37W/A57N the result was nd (0 of 3 replicates).
With V29H/N37F/Y97P the result was nd (0 of 3 replicates).

The opening 4 entries, copied out:

changes,"mean, log10 nM",detected
N37Y/S62P,0.68,3 of 3
S25T/N37Q/V39I,0.77,3 of 3
S25F/N37Y/S62K,1.47,3 of 3
S26N/N37Y/Q96A,1.56,3 of 3